Each structure is given as a SMILES string. Some compounds may have been tested in ways that are not shown here.

The subject of series [1] is isolated mouse liver mitochondria. Conditions: succinate, oligomycin A.
The conditions of series [2]: cited from earlier work.

In the case of `O=[N+]([O-])c1cc([N+](=O)[O-])c(O)c([N+](=O)[O-])c1`, the “uncoupling activity (in words)” value in series [1] is on record as “no significant uncoupling activity”. The pKa of the phenolic hydroxy group in series [2] is 0.25.

The values above are taken from paper PMC10901892 (Scientific Reports, 2024).
